# Laboratory results from ChEMBL document CHEMBL1124775 (J Med Chem, 1990).
# Assay: Binding affinity (Ki) was determined towards Opioid receptors by competition with [3H]diprenorphine in rat whole brain membrane preparation
smiles,measurement,value
CO[C@]12CC[C@@]3(C[C@@H]1C(C)(C)O)[C@H]1Cc4ccc(O)c5c4[C@@]3(CCN1CC1CC1)[C@H]2O5,pKi,9.66

# pKi: −log10 of the molar value.
